One data set relates to COL17A1. Kind of data set: COL17A1 expression in human epidermal keratinocytes by high content imaging (HCS). It is filed as cell-based. The note with it: Table 3; anticancer drugs and molecularly targeted drugs. As to the method: The present inventors further searched for substances that induce or maintain the expression of COL17A1. Human epidermal keratinocytes were seeded in 384-well plates, cultured for 48 hours after addition of reagents, immunostained with an anti-COL17A1 antibody and a fluorescently labeled secondary antibody, and then the fluorescence intensity per cell was detected using a high content imaging system (HCS: High Content Screening). In addition to cell counting with DAPI, the expression level of COL17A1 was quantified.

Data set [1] concerns skin damage induced by anticancer drugs. The data set is described as follows: TEWL after EGF receptor inhibitor administration (Example 9). The conditions noted are these: control mice about 18 months old, 50 mg/kg/day intraperitoneal, day 7 (FIG. 18). From the text: A 0.5% methylcellulose solution of the solvent was similarly administered to the control non-treated group. […] Measurements were taken at specific sites on the back of the mice (two sites symmetrically located on the left side and right side from the center of the spine) using Tewameter TN300 (Courage+Khazaka, Integral Corporation, Germany).

On to `COc1cc2ncnc(Nc3ccc(F)c(Cl)c3)c2cc1OCCCN1CCOCC1` [Gefitinib], for which the “COL17A1 expression level (control ratio)” value with COL17A1 was 0.76. Further, the TEWL entry in data set [1] is on record as “significantly increased”.
